In the experiment the target is T1, αGlc 1-P phosphatase (Escherichia coli, UniProt P19926, D396N/Q163K/Y105D).
T1 construct: Strep-tag (N); made in house; host or cells: E. coli Origami B (DE3), cytoplasmic, pMS470_dsbC vector (DsbC co-expressed)
Type of experiment: biochemical. The procedure: Fru 6-P was measured using an assay with mannitol 1-phosphate dehydrogenase (52). […] (1)
Fru (100, 200, 400 or 600 mM) or Glc (200 mM) was used as the acceptor substrate. […] Sampling was done to allow for determination of initial rates, but the full reaction time course was also recorded. Relevant kcat_app values for substrate consumption, phosphate release, and phosphoryl transfer were obtained from the corresponding V values using equation 2. Internal consistency of the data was always checked by mass balance. pH dependence of phosphoryl transfer. […] A 50 mM Mes buffer was used, except at pH ≤6.0 where 50 mM Mes and 20 mM sodium acetate were used, and at pH 8.0 where 50 mM Mes and 50 mM Tes were used. Buffer pH values were adjusted at 37° C. and controlled before and after recording each enzyme-catalyzed reaction. Sampling and analyses were as described above.
For data analysis by non-linear least-squares regression, SigmaPlot 2004 version 9.0 was used. Equation 3 describes a pH dependence where activity (expressed as logarithmic kcat_app) is constant at low pH and decreases above pKB. […]
Selected samples were analyzed on a Dionex BioLC system (Dionex Corporation, Sunnyvale, USA) equipped with a CarboPac PA10 column (4×250 mm) and an Amino Trap guard column (4×50 mm) thermostated at 30° C. […]

Chains of the proteins cited; added tags and fusions are not shown. A line that says so, or that is headed by a name, gives the form on record, which may keep a tag or linker.
UniProt P19926, other isoform, or with tags, fused parts or gaps Y105D/Q163K/D396N: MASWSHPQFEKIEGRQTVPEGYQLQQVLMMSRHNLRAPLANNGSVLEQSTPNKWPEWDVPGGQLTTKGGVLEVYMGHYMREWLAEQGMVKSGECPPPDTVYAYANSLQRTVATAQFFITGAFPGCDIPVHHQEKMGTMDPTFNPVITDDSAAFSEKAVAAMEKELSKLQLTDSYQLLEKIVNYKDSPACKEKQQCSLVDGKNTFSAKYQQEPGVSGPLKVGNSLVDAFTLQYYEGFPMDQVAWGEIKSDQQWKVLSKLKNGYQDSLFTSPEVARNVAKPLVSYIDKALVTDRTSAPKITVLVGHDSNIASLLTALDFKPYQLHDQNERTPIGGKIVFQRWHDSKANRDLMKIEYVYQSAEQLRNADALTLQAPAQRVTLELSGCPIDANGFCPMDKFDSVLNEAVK

This is an account of results in patent publication US10533201B2, “Enzymatic transphosphorylation of sugar substrates” (priority 2014, dated 2020).

Turning to `O=P(O)(O)O[C@H]1O[C@H](CO)[C@@H](O)[C@H](O)[C@H]1O` [αGlc 1-P, alpha-glucose-1-phosphate], the “calculated maximum kcat_app (α-Glc 1-P) at saturating concentrations of the phosphoryl acceptor” value was 254 s⁻¹.
